Assays:
[1] = background, cited from earlier work
[2] = test system: DNA and RNA; settings: background; cited from earlier work
[3] = Standard kinetics of decomposition of S-303 in red blood cells without Hemanext processing step (Example 12); settings: for half-life of S-303: RBC
[4] = Degradation of S-303 in RBCs in a combined Hemanext oxygen reduction and Intercept incubation protocol (Example 11)

amustaline
time until degradation of excess S-303 into S-300 is complete [1]: 16 to 18 h
half-life of residual S-303 decomposition ([1]; concentrations above 10 nM/L): about 20 minutes
time until formation of covalent DNA and RNA adducts is complete [2]: approximately 30 minutes
half-life of S-303 ([3]; concentrations above 10 nmol/L, without volume exchange step): 20 min
half-life of S-303 ([3]; lower S-303 concentrations): greater than 6 hours
additional incubation time to decrease the level of S-303 below 1 nmol/L ([3]; after the 6-hour timepoint, absence of the Hemanext processing step): 12 h
residual S-303 at 6-hour incubation timepoint ([3]; standard kinetics, absence of the Hemanext processing step): about 11 times the acceptance criterion of 1 nmol/L
Concentration of S-303 ([4]; Hemanext to Intercept, 1 hour): 16267 ± 2517 nmol/L
Concentration of S-303 ([4]; Hemanext to Intercept, 2 hours): 1403 ± 121 nmol/L
Concentration of S-303 ([4]; Hemanext to Intercept, 3 hours): 124 ± 4 nmol/L
Concentration of S-303 ([4]; Hemanext to Intercept, 4 hours): 25 ± 4 nmol/L
Concentration of S-303 ([4]; Hemanext to Intercept, 5 hours): 2.3 ± 0.3 nmol/L
Concentration of S-303 ([4]; Hemanext to Intercept, 6 hours): 0.54 ± 0.06 nmol/L
Concentration of S-303 ([4]; Hemanext to Intercept, Post transfer into bag 2): 123300 ± 34468 nmol/L
Concentration of S-303 ([4]; Hemanext to Intercept, timepoint Post S-303): 239333 ± 5508 nmol/L
Concentration of S-303 ([4]; Intercept to Hemanext, 1 hour): 15900 ± 1212 nmol/L
Concentration of S-303 ([4]; Intercept to Hemanext, 2 hours): 1727 ± 426 nmol/L
Concentration of S-303 ([4]; Intercept to Hemanext, 3 hours): 61 ± 9 nmol/L
Concentration of S-303 ([4]; Intercept to Hemanext, 4 hours): 7 ± 1 nmol/L
Concentration of S-303 ([4]; Intercept to Hemanext, 5 hours): 1.5 ± 0.2 nmol/L
Concentration of S-303 ([4]; Intercept to Hemanext, 6 hours): 0.88 ± 0.16 nmol/L
Concentration of S-303 ([4]; Intercept to Hemanext, Post transfer into bag 2): 123333 ± 31754 nmol/L
Concentration of S-303 ([4]; Intercept to Hemanext, timepoint Post S-303): 217333 ± 10970 nmol/L

— patent publication US20230015525A1, “Anaerobic Blood Storage and Pathogen Inactivation Method” (published 2023)
